In experiment [1] the target is 5-HT1A receptor (Homo sapiens, UniProt P08908). Put plainly: Receptor binding affinity at 5-HT1A (NIMH-PDSP radioligand binding).
Experiment [2] deals with D2 receptor (Homo sapiens, UniProt P14416). Put plainly: Receptor binding affinity at dopamine D2 (NIMH-PDSP radioligand binding).
The target in experiment [3] is 5-HT2C receptor (Homo sapiens, UniProt P28335). Put plainly: Receptor binding affinity at 5-HT2C (NIMH-PDSP radioligand binding). The settings on record: Table 5, Group 3 analogs; Ki without SEM within 20% of mean.
The target of experiment [4] is 5-HT2A receptor (Homo sapiens, UniProt P28223). Put plainly: Receptor binding affinity at 5-HT2A (NIMH-PDSP radioligand binding). The following applies: Table 5, Group 3 analogs; Ki without SEM within 20% of mean.

Protein sequences, listed by entry. Tags and fused reporters are not part of them. Residues count along the entry.
UniProt P08908, whole entry: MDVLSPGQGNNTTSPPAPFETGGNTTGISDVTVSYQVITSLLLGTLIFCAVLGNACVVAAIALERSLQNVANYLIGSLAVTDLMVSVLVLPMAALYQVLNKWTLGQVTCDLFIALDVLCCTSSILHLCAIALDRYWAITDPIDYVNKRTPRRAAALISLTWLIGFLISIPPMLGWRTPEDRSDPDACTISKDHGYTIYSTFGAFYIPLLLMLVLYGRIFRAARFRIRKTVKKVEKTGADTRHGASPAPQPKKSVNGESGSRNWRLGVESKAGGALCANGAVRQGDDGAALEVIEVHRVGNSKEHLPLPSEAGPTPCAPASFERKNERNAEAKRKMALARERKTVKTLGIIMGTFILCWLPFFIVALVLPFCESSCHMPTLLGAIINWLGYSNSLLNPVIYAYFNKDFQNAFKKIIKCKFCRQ
UniProt P14416, whole entry: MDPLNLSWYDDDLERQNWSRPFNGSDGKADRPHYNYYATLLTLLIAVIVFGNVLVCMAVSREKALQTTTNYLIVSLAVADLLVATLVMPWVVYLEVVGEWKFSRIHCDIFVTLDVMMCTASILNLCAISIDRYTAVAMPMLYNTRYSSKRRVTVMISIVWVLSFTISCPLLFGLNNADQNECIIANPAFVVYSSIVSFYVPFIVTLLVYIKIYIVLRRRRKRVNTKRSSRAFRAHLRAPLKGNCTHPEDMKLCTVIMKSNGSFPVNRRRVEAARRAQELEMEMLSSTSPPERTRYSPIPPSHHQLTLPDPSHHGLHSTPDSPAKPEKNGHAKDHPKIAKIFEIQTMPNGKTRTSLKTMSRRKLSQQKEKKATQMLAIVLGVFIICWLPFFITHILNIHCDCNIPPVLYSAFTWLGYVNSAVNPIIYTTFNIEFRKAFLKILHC
UniProt P28335, 33-458: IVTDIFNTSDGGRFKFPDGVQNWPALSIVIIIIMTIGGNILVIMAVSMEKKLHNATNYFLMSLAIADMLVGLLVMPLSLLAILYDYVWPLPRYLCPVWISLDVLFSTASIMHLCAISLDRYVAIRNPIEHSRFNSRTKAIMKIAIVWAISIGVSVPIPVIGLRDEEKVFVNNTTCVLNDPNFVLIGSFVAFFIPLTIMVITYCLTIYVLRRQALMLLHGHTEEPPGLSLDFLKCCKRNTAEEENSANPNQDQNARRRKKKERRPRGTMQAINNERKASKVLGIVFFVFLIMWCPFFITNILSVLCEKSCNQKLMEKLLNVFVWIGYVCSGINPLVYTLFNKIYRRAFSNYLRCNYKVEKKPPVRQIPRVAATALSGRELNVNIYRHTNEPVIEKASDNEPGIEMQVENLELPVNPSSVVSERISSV
UniProt P28223, whole entry: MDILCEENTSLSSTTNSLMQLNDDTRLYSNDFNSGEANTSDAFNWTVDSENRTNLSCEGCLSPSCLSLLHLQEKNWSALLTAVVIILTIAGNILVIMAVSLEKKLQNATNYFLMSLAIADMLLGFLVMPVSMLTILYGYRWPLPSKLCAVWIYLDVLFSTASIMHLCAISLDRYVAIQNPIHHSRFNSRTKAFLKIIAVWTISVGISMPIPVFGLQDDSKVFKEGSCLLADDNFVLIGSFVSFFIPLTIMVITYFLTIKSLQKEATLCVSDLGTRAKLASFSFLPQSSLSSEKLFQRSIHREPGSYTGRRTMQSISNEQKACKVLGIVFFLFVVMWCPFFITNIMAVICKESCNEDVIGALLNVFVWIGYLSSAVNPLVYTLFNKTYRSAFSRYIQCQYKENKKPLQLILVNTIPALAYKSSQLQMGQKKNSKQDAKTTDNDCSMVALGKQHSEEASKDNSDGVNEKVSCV

The values below come from patent US20180193330A1, “ALKYLATED TETRAHYDROISOQUINOLINES FOR BINDING TO CENTRAL NERVOUS SYSTEM RECEPTORS” (Florida A&M University, priority 2017, published 2018).

As to `Cl.O=C(CCCN1CCCc2ccccc2C1)c1ccc(Cl)cc1` [Compound 3e, 1-(4-Chlorophenyl)-4-(4,5-dihydro-1H-benzo[c]azepin-2(3H)-yl)butan-1-one hydrochloride], in experiment [1] (read-out: Ki 5-HT1A, Table 5, Group 3 analogs, Ki without SEM within 20% of mean), the inhibition constant (Ki) worked out at 1710 nM.

In experiment [2] (Table 5, Group 3 analogs, Ki without SEM within 20% of mean), `Cl.O=C(CCCN1CCc2ccccc2CC1)c1ccc(Cl)cc1` [Compound 3f, 1-(4-Chlorophenyl)-4-(4,5-dihydro-1H-benzo[d]azepin-3(2H)-yl)butan-1-one hydrochloride] showed a Ki of 1170 nM. `C1=C(CCN2CCc3ccccc3C2)Cc2ccccc21` [Compound 2a, 2-(2-(1H-inden-2-yl)ethyl)-1,2,3,4-tetrahydroisoquinoline]: the “pKi ± SEM 5-HT1A” value in experiment [1] (Table 4, Group 2 analogs) was “(5.96 ± 0.08)”. Turning to `O=C1Cc2cc(C(=O)CCCN3CCc4ccccc4C3)ccc2N1` [Compound 3g, 5-(4-(3,4-dihydroisoquinolin-2(1H)-yl)butanoyl)indolin-2-one], the Ki in experiment [3] was 4230 nM.

For `C1=C(CCN2CCc3ccccc3C2)CCc2ccccc21` [Compound 2b, 2-(2-(3,4-dihydronaphthalen-2-yl)ethyl)-1,2,3,4-tetrahydroisoquinoline], in experiment [2] (Table 4, Group 2 analogs), the “pKi ± SEM D2” value is listed as “(5.25 ± 0.06)”. On to `O=C1c2ccc(F)cc2CC1CCN1CCc2ccccc2C1` (stereo not drawn) [Compound 3h, 2-(2-(3,4-dihydroisoquinolin-2(1H)-yl)ethyl)-5-fluoro-2,3-dihydro-1H-inden-1-one], for which, in experiment [4], the Ki came to 1200 nM.

Broadly, the Ki is a dissociation constant, usually derived from enzyme kinetics or from competition with a known ligand.
